Source: patent US8278033B2, “Efficient well being assessment and improved treatment protocol” (priority 2008, dated 2012)

Assays:
endothelial cells = assay: Anti-vascular score (AVS) on Fast Green/H&E slides of tumor cell cultures, averaged over paired comparisons; type: cell-based, human; conditions: ratio of vehicle-corrected AVS to antitumor score; concentrations as in Table 1
Experimental: Solid tumors are minced to pieces smaller than 1 mm (small enough to be aspirated into a standard disposable 10 ml pipette) with high quality curved surgical scissors. Medium in which said tumors may have been transported is reserved, along with the supernatant from the tissue mince. Scissor-minced tumor pieces are digested with collagenase/DNase in RPMI-1640 containing antibiotics and 10% fetal calf serum. Specimens are digested in 50 ml disposable polypropylene centrifuge tubes, assisted by gentle mixing with plastic-coated, magnetic stirring bars over a stirring plate. Specimens are thusly mixed until complete gross digestion has taken place—typically about 2-3 hours for a 1-3 gram specimen. Cytospin slides are then prepared from all cell fractions (transport medium, supernatant from tissue mince, and enzyme digestate), and stained with fast green-H&E, as described previously (Weisenthal, et al., “A Novel Dye Exclusion Method for Testing in vitro Chemosensitivity of Human Tumors,” Cancer Res. (1983) 43:749-757).
Final volume of cell suspension/drug solution (or vehicle) plated for culture can be 0.12 ml. […]
Cells are cultured with the index concentration of each drug and, if desired, with dilutions of the index concentration, where the index concentration is determined from training set assays or from the literature. […]

breast cancer = breast cancer patient with daily wine consumption of 1.5 l; Eichbaum, Anticancer Drugs (2005); cited from earlier work

Compound | (AVS − VAVS)/AT Ratio (Avg) (endothelial cells) | remission on therapy (breast cancer)
CNC(=O)c1cc(Oc2ccc(NC(=O)Nc3ccc(Cl)c(C(F)(F)F)c3)cc2)ccn1 [Sorafenib, sorafenib] | 0.05 | –
trastuzumab | – | 5-year+ remission
